Reference: EP0417558A2, “S-haloalkyl(di)(tri)(thio)phosphoric(phosphonic)acid(amide) esters” (dated 1991)

Columns and labels:
[1] = test system: Lucilia cuprina resistent-Larven; assay: Test with resistant Lucilia cuprina larvae; conditions: 1000 ppm; after 24 h
[2] = test system: Blattella germanica; assay: Impregnated filter paper test with cockroaches (Example C); conditions: 1000 ppm; Blatella germanica; adults on impregnated filter paper

Molecule CCOP(=O)(SC(F)(F)C(F)(Cl)Cl)N(CC)CC (racemic) has an Abtötungsgrad [1] of 100% and a Wirkung [2] of 100%.

Only a part of the results on these compounds is given; other tests are left out.
